The chains behind the UniProt entries cited, without tags or fusion partners.
UniProt P11229, whole entry: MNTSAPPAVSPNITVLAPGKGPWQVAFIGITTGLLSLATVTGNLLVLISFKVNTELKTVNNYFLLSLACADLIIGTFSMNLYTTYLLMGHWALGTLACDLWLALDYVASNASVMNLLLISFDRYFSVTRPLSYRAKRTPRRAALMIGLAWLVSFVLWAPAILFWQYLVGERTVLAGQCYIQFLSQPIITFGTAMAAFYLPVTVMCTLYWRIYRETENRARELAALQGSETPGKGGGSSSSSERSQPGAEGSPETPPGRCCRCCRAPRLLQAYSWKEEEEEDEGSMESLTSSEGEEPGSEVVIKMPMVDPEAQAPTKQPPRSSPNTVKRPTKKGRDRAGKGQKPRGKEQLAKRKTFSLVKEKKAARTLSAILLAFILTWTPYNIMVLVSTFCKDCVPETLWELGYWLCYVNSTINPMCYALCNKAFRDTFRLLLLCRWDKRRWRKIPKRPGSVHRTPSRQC
UniProt P08173, whole entry: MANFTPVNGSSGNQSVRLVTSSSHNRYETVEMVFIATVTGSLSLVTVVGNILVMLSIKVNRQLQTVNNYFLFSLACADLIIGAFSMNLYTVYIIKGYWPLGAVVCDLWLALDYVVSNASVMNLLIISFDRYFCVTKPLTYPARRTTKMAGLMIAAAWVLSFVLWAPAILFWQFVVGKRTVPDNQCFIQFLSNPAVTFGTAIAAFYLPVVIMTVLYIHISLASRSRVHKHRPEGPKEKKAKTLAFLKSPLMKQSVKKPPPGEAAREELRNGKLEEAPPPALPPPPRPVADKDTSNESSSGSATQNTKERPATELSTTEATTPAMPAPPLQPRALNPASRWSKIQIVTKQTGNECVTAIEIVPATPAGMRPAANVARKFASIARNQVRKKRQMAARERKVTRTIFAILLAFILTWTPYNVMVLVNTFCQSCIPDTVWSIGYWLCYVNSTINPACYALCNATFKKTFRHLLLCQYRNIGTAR
UniProt P20309, whole entry: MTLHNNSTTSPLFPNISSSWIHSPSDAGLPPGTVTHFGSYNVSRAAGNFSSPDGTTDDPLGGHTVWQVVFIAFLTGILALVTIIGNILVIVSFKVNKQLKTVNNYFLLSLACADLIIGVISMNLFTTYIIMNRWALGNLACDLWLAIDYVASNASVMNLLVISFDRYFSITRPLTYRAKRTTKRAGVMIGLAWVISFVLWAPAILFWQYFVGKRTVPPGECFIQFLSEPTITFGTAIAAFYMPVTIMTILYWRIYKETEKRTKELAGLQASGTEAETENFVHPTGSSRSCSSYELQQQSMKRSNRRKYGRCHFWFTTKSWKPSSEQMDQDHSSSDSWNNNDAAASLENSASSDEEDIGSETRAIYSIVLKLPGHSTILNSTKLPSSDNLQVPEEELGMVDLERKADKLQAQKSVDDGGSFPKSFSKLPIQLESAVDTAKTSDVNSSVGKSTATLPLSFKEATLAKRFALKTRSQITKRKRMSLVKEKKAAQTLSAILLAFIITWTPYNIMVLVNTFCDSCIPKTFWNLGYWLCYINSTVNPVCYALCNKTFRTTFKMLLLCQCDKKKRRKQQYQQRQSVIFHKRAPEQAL
UniProt P08172, whole entry: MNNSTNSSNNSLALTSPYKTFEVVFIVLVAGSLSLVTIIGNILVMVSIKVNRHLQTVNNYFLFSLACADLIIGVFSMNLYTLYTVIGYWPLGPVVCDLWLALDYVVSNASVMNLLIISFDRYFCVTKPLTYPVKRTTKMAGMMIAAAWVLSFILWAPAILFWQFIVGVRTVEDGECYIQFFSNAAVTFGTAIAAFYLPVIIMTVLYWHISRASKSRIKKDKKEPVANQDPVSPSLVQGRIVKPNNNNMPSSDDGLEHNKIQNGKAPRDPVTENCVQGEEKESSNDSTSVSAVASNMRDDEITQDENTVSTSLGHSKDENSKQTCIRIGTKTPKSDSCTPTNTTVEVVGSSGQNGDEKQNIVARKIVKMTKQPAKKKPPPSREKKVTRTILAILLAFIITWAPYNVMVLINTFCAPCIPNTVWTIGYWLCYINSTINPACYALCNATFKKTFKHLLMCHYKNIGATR

In patent US10759751B2, “Substituted spirocyclohexanes as muscarinic M1 receptor and/or M4 receptor agonists” (Heptares Therapeutics Limited, priority 2016, dated 2020):

How the values were obtained:
Type in all cases: cell-based
[1] = target: human muscarinic M1 receptor (Homo sapiens, UniProt P11229); experiment: Alphascreen Surefire phospho-ERK1/2 functional assay, M1; details: CHO cells stably expressing human M1; for M1 % Emax cf. ACh: Emax relative to ACh; for pEC50 M1: phospho-ERK1/2
[2] = target: human muscarinic M4 receptor (Homo sapiens, UniProt P08173); experiment: Alphascreen Surefire phospho-ERK1/2 functional assay, M4; details: CHO cells stably expressing human M4; for M4 % Emax cf. ACh: Emax relative to ACh; for pEC50 M4: phospho-ERK1/2
[3] = target: human muscarinic M3 receptor (Homo sapiens, UniProt P20309); experiment: Alphascreen Surefire phospho-ERK1/2 functional assay, M3; details: CHO cells stably expressing human M3; for M3 % Emax cf. ACh: Emax relative to ACh; for pEC50 M3: phospho-ERK1/2
[4] = target: human muscarinic M2 receptor (Homo sapiens, UniProt P08172); experiment: Alphascreen Surefire phospho-ERK1/2 functional assay, M2; details: CHO cells stably expressing human M2; for M2 % Emax cf. ACh: Emax relative to ACh; for pEC50 M2: phospho-ERK1/2

| SMILES | M1 % Emax cf. ACh [1] | pEC50 M1 [1] | M4 % Emax cf. ACh [2] | pEC50 M4 [2] | M3 % Emax cf. ACh [3] | pEC50 M3 [3] | M2 % Emax cf. ACh [4] | pEC50 M2 [4] |
| --- | --- | --- | --- | --- | --- | --- | --- | --- |
| CCOC(=O)N1CCC2C(C1)CN2C1CCC(C#N)(c2ccccc2)CC1 (single isomer, unassigned) | 106% | 7.05 | 63% | 6.45 | 1% | 4.7 | 0% | 4.7 |
| CCc1noc(C2CC2CNC2CCC(C#N)(c3ccccc3)CC2)n1 (single isomer, unassigned) | 92% | 6.27 | 84% | 6.75 | – | – | – | – |
| Cc1ccc2c(c1)C1(CCC(N[C@@H]3CC[C@H](c4nc(C(F)(F)F)no4)C3)CC1)C(=O)N2 (single isomer, unassigned) | 62% | 7.20 | 85% | 5.36 | 100% | 4.80 | 38% | 5.12 |
| Cc1ccc2c(c1)NC(=O)C21CCC(N[C@@H]2CC[C@H](c3nc(C)no3)C2)CC1 (single isomer, unassigned) | 81% | 6.45 | 39% | 6.38 | – | – | – | – |
